Assay results published in US11524968B2, “Heterocyclic compound as a protein kinase inhibitor” (HK inno.N Corporation, priority 2017, dated 2022).
pIC50: −log10 of the molar value.

Chains of the proteins cited; added tags and fusions are not shown.
UniProt P23458, whole entry: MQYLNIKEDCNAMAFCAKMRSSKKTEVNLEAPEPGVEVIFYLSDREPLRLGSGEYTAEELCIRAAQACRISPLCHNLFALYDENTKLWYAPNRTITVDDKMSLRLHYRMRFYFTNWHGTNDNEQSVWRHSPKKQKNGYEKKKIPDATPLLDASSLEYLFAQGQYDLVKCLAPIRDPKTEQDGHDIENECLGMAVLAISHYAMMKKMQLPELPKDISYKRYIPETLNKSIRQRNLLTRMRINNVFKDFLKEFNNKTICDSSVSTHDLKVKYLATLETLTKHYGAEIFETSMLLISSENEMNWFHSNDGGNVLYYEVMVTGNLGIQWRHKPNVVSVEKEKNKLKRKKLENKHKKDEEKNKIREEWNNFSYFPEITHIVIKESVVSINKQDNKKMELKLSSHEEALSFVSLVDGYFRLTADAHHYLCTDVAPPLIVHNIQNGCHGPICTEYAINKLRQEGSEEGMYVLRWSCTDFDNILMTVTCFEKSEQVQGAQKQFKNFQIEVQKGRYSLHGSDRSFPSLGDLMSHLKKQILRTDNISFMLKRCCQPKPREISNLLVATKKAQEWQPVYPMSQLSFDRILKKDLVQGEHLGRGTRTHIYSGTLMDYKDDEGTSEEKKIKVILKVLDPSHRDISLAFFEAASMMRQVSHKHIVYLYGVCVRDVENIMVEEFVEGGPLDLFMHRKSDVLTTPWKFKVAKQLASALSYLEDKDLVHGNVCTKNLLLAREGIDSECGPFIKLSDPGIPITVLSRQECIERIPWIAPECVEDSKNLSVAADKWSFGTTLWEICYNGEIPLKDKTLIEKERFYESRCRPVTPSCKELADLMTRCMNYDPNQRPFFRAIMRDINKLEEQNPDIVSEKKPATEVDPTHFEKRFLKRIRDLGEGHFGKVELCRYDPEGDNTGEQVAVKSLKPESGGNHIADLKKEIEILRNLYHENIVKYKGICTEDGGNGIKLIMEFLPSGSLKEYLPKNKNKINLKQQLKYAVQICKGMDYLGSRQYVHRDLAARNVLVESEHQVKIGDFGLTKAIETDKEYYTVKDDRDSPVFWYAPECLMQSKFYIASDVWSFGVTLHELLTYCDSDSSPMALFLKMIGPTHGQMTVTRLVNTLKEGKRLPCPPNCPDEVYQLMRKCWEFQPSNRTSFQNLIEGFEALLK

Target: JAK1 (Homo sapiens (Human), UniProt P23458)
Assay: Analysis of JAK1 activity inhibition ability (ADP-Glo Kinase Assay)
Details: JAK1 enzyme, ADP-Glo luminescence, ATP 250 uM, IRS-itide substrate, 30° C. 40 minutes
Method: Test Example 1: Analysis of JAK1 Activity Inhibition Ability of Compound of Formula 1 (ADP-Glo™ Kinase Assay)
A JAK inhibition ability of a compound according to the present invention was identified as follows.
A control material and a test material were prepared for each concentration, in such a way that they were diluted by means of DMSO. At the same time, ATP (250 uM) and JAK substrate (JAK1, IRS-itide 40 ng/mL) were prepared, in such a way that they were diluted by means of kinase buffer (40 mM Tris-HCl pH 7.5, 20 mM MgCl2, 0.5 mg/mL BSA, 50 uM DTT).
A test drug for each concentration, substrate, ATP and JAK enzyme were mixed in an eppendorf tube, and reacted in a 30° C. incubator for 40 minutes.
ADP-Glo™ reagent contained in ADP-Glo™ Kinase Enzyme System (Promega, USA, V9571) was added into each eppendorf tube, and reacted in a 30° C. incubator for 40 minutes. A kinase detection reagent contained in ADP-Go™ Kinase Enzyme System was inserted into the eppendorf tube, then an integration time was set to 1 second by using Wallac Victor 2™, then luminescence was measured, and then JAKs phosphorylation inhibition ability of the test material was analyzed. The concentration of the compound, which causes 50% of the JAK enzyme activity inhibition in comparison With the control group, was determined as IC50 (nM) of an inhibitor, wherein the results thereof are shown in a following table 1.

Structure (SMILES): CS(=O)(=O)N1C2CCC1CN(c1cc(NC(=O)C3CC3)nc3[nH]ccc13)C2
- pIC50: 6.70 to 7.70
